Experimental data published in patent US20090012045A1, “Methods of Treating Cell Proliferative Disorders” (RIGEL PHARMACEUTICALS, INC., priority 2007, published 2009).

System: NCI-H322M
Conditions: NCI-H322M (Non-Small Cell Lung Cancer)

COc1cc(Nc2ncc(F)c(Nc3ccc4c(n3)NC(=O)C(C)(C)O4)n2)cc(OC)c1OC.O=S(=O)(O)c1ccccc1 [Compound 1 (besylate salt), N4-(2,2-Dimethyl-3-oxo-4H-5-pyrid[1,4]oxazin-6-yl)-5-fluoro-N2-(3,4,5-trimethoxyphenyl)-2,4-pyrimidinediamine Benzenesulfonic Acid Salt]
GI50: > 100 µM
TGI: >1.00E−4
CC50 (read-out: LC50): > 100 µM
